Biological target: T1, Cytochrome P450 1B1 (Homo sapiens, UniProt Q16678)
T1 sequence (Q16678 whole entry): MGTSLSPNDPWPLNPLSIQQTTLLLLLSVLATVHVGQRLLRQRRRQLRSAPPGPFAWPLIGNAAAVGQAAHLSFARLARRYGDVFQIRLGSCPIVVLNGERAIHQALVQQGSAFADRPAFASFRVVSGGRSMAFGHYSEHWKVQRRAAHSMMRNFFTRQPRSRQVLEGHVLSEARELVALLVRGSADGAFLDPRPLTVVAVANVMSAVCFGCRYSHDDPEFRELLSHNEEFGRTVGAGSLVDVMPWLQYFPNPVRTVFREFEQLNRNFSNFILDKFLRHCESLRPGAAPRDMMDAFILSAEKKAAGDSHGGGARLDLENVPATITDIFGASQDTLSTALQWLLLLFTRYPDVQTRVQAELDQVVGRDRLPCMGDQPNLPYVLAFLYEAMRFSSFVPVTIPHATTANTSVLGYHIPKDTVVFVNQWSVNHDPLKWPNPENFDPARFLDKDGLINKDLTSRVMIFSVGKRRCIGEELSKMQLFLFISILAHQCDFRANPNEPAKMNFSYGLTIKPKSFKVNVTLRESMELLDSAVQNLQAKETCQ

For `COc1cc(/C=C/c2ccc(OC)cc2OC)cc(OC)c1`, the IC50 was 2 nM.
